This assay concerns the target T1, isolated rat aorta rings (Rattus norvegicus, UniProt P26684).
T1 construct: Rings with a length of 5 mm were cut out from the thorax aorta of adult Wistar-Kyoto rats; from tissue; host or cells: thoracic aorta of adult Wistar-Kyoto rats, endothelium removed
In words: Inhibition of endothelin-induced contractions in isolated rat aorta rings. More on the design: species or system adult Wistar-Kyoto rats. The following applies: contraction of rat aorta rings, no test compound; read-out: EC50 of endothelin in the absence of test compounds. On the procedure: Rings with a length of 5 mm were cut out from the thorax aorta of adult Wistar-Kyoto rats. The endothelium was removed by lightly rubbing the internal surface. Each ring was immersed at 37° C. in 10 ml of Krebs-Henseleit solution in an isolated bath while gassing with 95% O2 and 5% CO2. The isometric stretching of the rings was measured. The rings were stretched to a pre-tension of 3 g.
The corresponding pA2 value, which is a measure of the activity of the test compound, was calculated using a computer programme according to the following equation from the "dose ratio" DR for each individual dosage-activity curve.
pA2 =log(DR-1)-log(antagonist-concentration)

Chains of the proteins cited; added tags and fusions are not shown. Residues count along the entry.
UniProt P26684, 21-426: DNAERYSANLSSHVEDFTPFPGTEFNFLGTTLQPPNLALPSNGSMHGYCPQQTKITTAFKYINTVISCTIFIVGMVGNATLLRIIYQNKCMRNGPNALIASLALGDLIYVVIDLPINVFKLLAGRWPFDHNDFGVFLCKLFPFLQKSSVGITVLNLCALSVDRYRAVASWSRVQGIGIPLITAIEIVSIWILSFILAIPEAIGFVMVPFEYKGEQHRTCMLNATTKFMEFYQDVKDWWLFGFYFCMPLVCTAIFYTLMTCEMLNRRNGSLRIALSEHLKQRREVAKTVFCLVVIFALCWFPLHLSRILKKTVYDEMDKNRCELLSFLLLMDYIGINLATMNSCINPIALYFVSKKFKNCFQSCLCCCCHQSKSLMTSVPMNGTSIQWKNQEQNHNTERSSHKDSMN

As for endothelin [reference compound], the EC50 (commonly the concentration needed to bring the measured effect to its halfway point) was found to be 0.3 nM.

For the origin of these results see patent US6242601A, “Heterocyclic sulfamides” (Hoffman-La Roche Inc., priority 1999, dated 2001).
